Experiments:
[1] = target: T1, GLS1 (Homo sapiens, UniProt O94925); experiment: GLS1 cell assay: intracellular glutamate level in A549 cells (Glutamine/Glutamate-Glo); conditions: read-out: Cell IC50, 2 h compound pre-incubation, then 24 h with L-Gln
[2] = target: T1, GLS1; experiment: GLS1 enzymatic assay (three-stage coupled endpoint assay: GLS1/GDH/diaphorase, resorufin fluorescence); conditions: read-out: Enzyme IC50

By UniProt entry, the sequences of proteins in these tests, tags left out. Residues count along the entry.
UniProt O94925, 55-669 limits assumed: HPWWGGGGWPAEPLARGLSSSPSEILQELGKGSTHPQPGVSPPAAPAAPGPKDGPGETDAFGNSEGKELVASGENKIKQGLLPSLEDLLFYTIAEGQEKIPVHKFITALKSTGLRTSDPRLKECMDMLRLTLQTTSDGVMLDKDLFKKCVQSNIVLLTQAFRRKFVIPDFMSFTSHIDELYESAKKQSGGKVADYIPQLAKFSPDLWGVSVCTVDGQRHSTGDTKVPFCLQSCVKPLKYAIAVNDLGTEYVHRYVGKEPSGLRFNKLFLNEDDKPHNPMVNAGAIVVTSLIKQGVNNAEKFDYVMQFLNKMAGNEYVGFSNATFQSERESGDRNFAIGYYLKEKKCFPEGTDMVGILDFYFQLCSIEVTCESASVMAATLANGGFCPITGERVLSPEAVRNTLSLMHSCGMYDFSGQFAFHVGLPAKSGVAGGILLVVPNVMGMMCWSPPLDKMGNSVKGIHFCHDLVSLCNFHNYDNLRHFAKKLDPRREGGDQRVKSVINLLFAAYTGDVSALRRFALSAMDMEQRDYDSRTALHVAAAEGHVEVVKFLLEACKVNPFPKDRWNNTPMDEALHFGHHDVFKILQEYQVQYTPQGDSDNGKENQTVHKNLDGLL
UniProt O94925, 73-669 limits assumed: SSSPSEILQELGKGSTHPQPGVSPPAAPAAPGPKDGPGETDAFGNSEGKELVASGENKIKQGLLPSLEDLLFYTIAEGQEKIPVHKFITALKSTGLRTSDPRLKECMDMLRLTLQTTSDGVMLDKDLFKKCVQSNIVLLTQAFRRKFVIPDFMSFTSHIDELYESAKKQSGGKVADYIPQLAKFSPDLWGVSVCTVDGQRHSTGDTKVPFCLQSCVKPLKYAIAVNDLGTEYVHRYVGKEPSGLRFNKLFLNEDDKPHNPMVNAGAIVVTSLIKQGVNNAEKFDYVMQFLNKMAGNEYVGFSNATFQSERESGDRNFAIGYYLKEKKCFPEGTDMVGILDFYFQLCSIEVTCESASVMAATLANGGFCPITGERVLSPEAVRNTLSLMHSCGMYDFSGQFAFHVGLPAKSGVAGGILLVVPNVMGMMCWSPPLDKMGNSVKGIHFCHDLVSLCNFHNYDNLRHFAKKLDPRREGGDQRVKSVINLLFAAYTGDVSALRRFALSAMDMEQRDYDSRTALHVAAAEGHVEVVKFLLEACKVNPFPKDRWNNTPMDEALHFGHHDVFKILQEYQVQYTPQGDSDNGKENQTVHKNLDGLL

SMILES | IC50 [1] [nM] | IC50 [2] [nM]
O=C(C[C@@H]1COCCN1C1CCCCC1)Nc1nnc(N[C@@H]2CCN(c3cccnn3)C2)s1 (single isomer, unassigned) [Example 227] | 33.4 | 67.9
CC1(C)CCC(CN2CCSC(C(=O)Nc3nnc(N[C@@H]4CCN(c5cccnn5)C4)s3)C2)CC1 (some centres unmarked) | 12.1 | 212
O=C(C[C@@H]1CCCN(Cc2ccccc2OC2CCCC2)C1)Nc1nnc(N[C@@H]2CCN(c3cccnn3)C2)s1 | 34 | 52.2
C[C@H](c1cc(F)cc(F)c1)N1CCC[C@@H](CC(=O)Nc2nnc(N[C@@H]3CCN(c4cccnn4)C3)s2)C1 (single isomer, unassigned) [Example 242] | 3.6 | 27.4
Cc1ccc(OC(F)F)c(CN2CCC(CC(=O)Nc3nnc(N[C@@H]4CCN(c5cccnn5)C4)s3)CC2)c1 | 19.9 | 55.8
CN(CC(=O)Nc1nnc(N[C@@H]2CCN(c3cccnn3)C2)s1)C(C)(C)C1CCN(Cc2cccc(OC(F)(F)F)c2)CC1 | 25.9 | 90
CC(C)Oc1ccccc1CCN1CCC[C@H](CC(=O)Nc2nnc(N[C@@H]3CCN(c4cccnn4)C3)s2)C1 | 143 | 25.1
CC[C@@H](C(=O)Nc1nnc(N[C@@H]2CCN(c3cccnn3)C2)s1)C1CCN(Cc2ccccc2OC(C)C)CC1 (single isomer, unassigned) [Example 209] | 116 | 80
CC(C)(C)n1ccc(CN2CCC(SCC(=O)Nc3nnc(N[C@@H]4CCN(c5cccnn5)C4)s3)CC2)c1 | 66.1 | 22.2
CC1(C)CC(N2CCOC(CC(=O)Nc3nnc(N[C@@H]4CCN(c5cccnn5)C4)s3)C2)CC1(C)C (some centres unmarked) | 3.4 | 23.3
CC1(C)CCC(N2CCOC(CC(=O)Nc3nnc(N[C@@H]4CCN(c5cncnn5)C4)s3)C2)CC1 (some centres unmarked) | 20.3 | 79.6
O=C(CC1CC2(CO1)CN(Cc1ccccc1OC1CCCC1)C2)Nc1nnc(N[C@@H]2CCN(c3cccnn3)C2)s1 (some centres unmarked) | 28.3 | 21.4
Cc1ccc(CN2CCC(CC(=O)Nc3nnc(N[C@@H]4CCN(c5cccnn5)C4)s3)CC2)c(OC(C)C)c1 | 48.5 | 33.7
CC(C)Oc1ccccc1CN1CCC[C@@H](SCC(=O)Nc2nnc(N[C@@H]3CCN(c4cccnn4)C3)s2)C1 (single isomer, unassigned) [Example 101] | 15.8 | 27.6
CN(c1nnc(NC(=O)CC2CN(C3CCC(C)(C)CC3)CCO2)s1)[C@@H]1CCN(c2cccnn2)C1 (some centres unmarked) | 52.7 | 236
CC(C)Oc1ccccc1[C@@H](C)N1CCC(SCC(=O)Nc2nnc(N[C@@H]3CCN(c4cccnn4)C3)s2)CC1 (single isomer, unassigned) [Example 234] | 4 | 30.1
CC(C)[C@H]1CC[C@H](N2CCO[C@H](CC(=O)Nc3nnc(N[C@@H]4CCN(c5cccnn5)C4)s3)C2)CC1 (single isomer, unassigned) [Example 246] | 2.1 | 24.2
O=C(CC1CCN(Cc2ccccc2OC(F)(F)F)CC1)Nc1nnc(N[C@@H]2CCN(c3cccnn3)C2)s1 | 3.8 | 56.7
CN1CCN(Cc2cccc(OC(F)(F)F)c2)[C@@H](CC(=O)Nc2nnc(N[C@@H]3CCN(c4cccnn4)C3)s2)C1 (single isomer, unassigned) [Example 66] | 20 | 53.2
CC1(C)CCC(CN2CCOC(CC(=O)Nc3nnc(N[C@@H]4CCN(c5cccnn5)C4)s3)C2)CC1 (some centres unmarked) | 1.7 | 44.9

SMILES | IC50 [1] [nM] | IC50 [2] [nM]
O=C(Nc1nnc(N[C@@H]2CCN(c3cccnn3)C2)s1)[C@H]1CC2(CCN(Cc3cccc(OC(F)F)c3)CC2)CO1 (single isomer, unassigned) [Example 196] | 3.4 | 31.9
CO[C@@H](C(=O)Nc1nnc(N[C@@H]2CCN(c3cccnn3)C2)s1)C1CCN(Cc2ccc(OC(F)(F)F)cc2)CC1 (single isomer, unassigned) [Example 68] | 12.8 | 109
Cc1cc(CN2CCC[C@@H](CC(=O)Nc3nnc(N[C@@H]4CCN(c5cccnn5)C4)s3)C2)cc(C)c1F | 7.8 | 27
O=C(C[C@@H]1CCCN(Cc2ccc(OC(F)(F)F)cc2)C1)Nc1nnc(N[C@@H]2CCN(c3cccnn3)C2)s1 | 5.4 | 23.7
O=C(CSC1CCN(Cc2ccc(OC(F)(F)F)cc2)CC1)Nc1nnc(N[C@@H]2CCN(c3cccnn3)C2)s1 | 1.8 | 96.3
Cc1ccc(C(C)N2CCC[C@@H](CC(=O)Nc3nnc(N[C@@H]4CCN(c5cccnn5)C4)s3)C2)c(F)c1 (some centres unmarked) | 6.6 | 22.6
COC(C(=O)Nc1nnc(N[C@@H]2CCN(c3cccnn3)C2)s1)C1CCN(Cc2cc(C)cc(C)c2)CC1 (some centres unmarked) | 13.4 | 116
CC(C)Sc1ccccc1CN1CC2(CO[C@@H](CC(=O)Nc3nnc(N[C@@H]4CCN(c5cccnn5)C4)s3)C2)C1 (single isomer, unassigned) [Example 215] | 3.2 | 17.7
O=C(CC1CC2(C1)CN(Cc1cccc(OC(F)F)c1)C2)Nc1nnc(N[C@@H]2CCN(c3cccnn3)C2)s1 | 47.8 | 42.9
O=C(CC1COCCN1C1CCCCC1)Nc1nnc(N[C@@H]2CCN(c3cccnn3)C2)s1 (some centres unmarked) | 28 | 40.1
O=C(C[C@@H]1CN(C2CCC3(CCC3)CC2)CCO1)Nc1nnc(N[C@@H]2CCN(c3cccnn3)C2)s1 (single isomer, unassigned) [Example 276] | 14.6 | 31.2
CN1CCN(Cc2cccc(OC(F)(F)F)c2)C(CC(=O)Nc2nnc(N[C@@H]3CCN(c4cccnn4)C3)s2)C1 (some centres unmarked) | 14.4 | 45.2
CC1(CC(=O)Nc2nnc(N[C@@H]3CCN(c4cccnn4)C3)s2)CCN(Cc2ccc(OC(F)(F)F)cc2)CC1 | 5.9 | 46.2
CC1(C)CCC(N2CCCOC(CC(=O)Nc3nnc(N[C@@H]4CCN(c5cccnn5)C4)s3)C2)CC1 (some centres unmarked) | 31.1 | 33.7
CC(C)Oc1cc(F)cc(CN2CCC[C@@H](CC(=O)Nc3nnc(N[C@@H]4CCN(c5cccnn5)C4)s3)C2)c1 | 4.1 | 24.9
CCC(SC1CCN(Cc2ccccc2OC(C)C)CC1)C(=O)Nc1nnc(N[C@@H]2CCN(c3cccnn3)C2)s1 (some centres unmarked) | 8.6 | 64.7
CCc1oc2ccccc2c1CN1CCC[C@@H](CC(=O)Nc2nnc(N[C@@H]3CCN(c4cccnn4)C3)s2)C1 | 9.3 | 178
CCC1(CC)CCC(N2CCOC(CC(=O)Nc3nnc(N[C@@H]4CCN(c5cccnn5)C4)s3)C2)CC1 (some centres unmarked) | 3 | 26
O=C(CC1CCN(Cc2cccc(C(=O)O)c2)CC1)Nc1nnc(N[C@@H]2CCN(c3cccnn3)C2)s1 | 9590 | 77.4
O=C(Nc1nnc(N[C@@H]2CCN(c3cccnn3)C2)s1)[C@H]1CC2(CCN(Cc3cccc(OC(F)F)c3)CC2)CO1 (single isomer, unassigned) [Example 195] | 3 | 37.4

SMILES | IC50 [1] [nM] | IC50 [2] [nM]
Cc1cc(CN2CCC(CC(=O)Nc3nnc(N[C@@H]4CCN(c5cccnn5)C4)s3)CC2)ccc1C(F)(F)F | 4.1 | 49.4
O=C(CC1CCN(Cc2ccccc2Cl)CC1)Nc1nnc(N[C@@H]2CCN(c3cccnn3)C2)s1 | 18.2 | 43.6
CO[C@@H](C(=O)Nc1nnc(N[C@@H]2CCN(c3cccnn3)C2)s1)C1CCN(Cc2ccc(OC(F)(F)F)cc2)CC1 (single isomer, unassigned) [Example 69] | 1.8 | 56
Cc1ccccc1CN1CCC(C(CC2CC2)C(=O)Nc2nnc(N[C@@H]3CCN(c4cccnn4)C3)s2)CC1 (some centres unmarked) | 40.1 | 118
Cc1cc(C)cc(CN2CCC3(CC2)COC(C(=O)Nc2nnc(N[C@@H]4CCN(c5cccnn5)C4)s2)C3)c1 (some centres unmarked) | 8.5 | 42.9
CC(C)(C)[C@H]1CC[C@@H](N2CCOC(CC(=O)Nc3nnc(N[C@@H]4CCN(c5cccnn5)C4)s3)C2)CC1 (some centres unmarked) | 1.7 | 30.8
O=C(CC1CCC2(CC1)CCN(Cc1ccc(C(F)F)nc1)CC2)Nc1nnc(N[C@@H]2CCN(c3cccnn3)C2)s1 | 7.4 | 12
O=C(CC1CC2(CCN(Cc3cccc(OC(F)F)c3)C2)C1)Nc1nnc(N[C@@H]2CCN(c3cccnn3)C2)s1 (some centres unmarked) | 36.7 | 38.8
CC(C(=O)Nc1nnc(N[C@@H]2CCN(c3cccnn3)C2)s1)C1CCN(Cc2cncc(C(F)(F)F)c2)CC1 (some centres unmarked) | 14 | 34.9
CC(C)Sc1ccccc1CN1CC2(CCN(CC(=O)Nc3nnc(N[C@@H]4CCN(c5cccnn5)C4)s3)C2)C1 | 3.5 | 15.8
CC(C)[C@@H]1CC[C@@H](C)C[C@@H]1N1CCO[C@H](CC(=O)Nc2nnc(N[C@@H]3CCN(c4cccnn4)C3)s2)C1 (racemic) [Example 126] | 5640 | 2900
CCc1ccc(CN2CCC[C@@H](CC(=O)Nc3nnc(N[C@@H]4CCN(c5cccnn5)C4)s3)C2)cc1F | 5.3 | 18.9
COc1ccc(CN2CC(CC(=O)Nc3nnc(N[C@@H]4CCN(c5cccnn5)C4)s3)CC3(CC3)C2)nc1C(F)(F)F (some centres unmarked) | 26 | 71.9
CC1(C)CCC(CN2CCO[C@H](CC(=O)Nc3nnc(N[C@@H]4CCN(c5cccnn5)C4)s3)C2)CC1 (single isomer, unassigned) [Example 73] | 0.9 | 67.1
CN(Cc1cccc(OC(F)(F)F)c1)C1(CC(=O)Nc2nnc(N[C@@H]3CCN(c4cccnn4)C3)s2)CC1 | 3.7 | 107
Cc1cc(C)c(CN2CCC(CC(=O)Nc3nnc(N[C@@H]4CCN(c5cccnn5)C4)s3)CC2)c(C)c1 | 10.8 | 65.1
Cc1ccccc1CN1CCC([C@@H](CC2CC2)C(=O)Nc2nnc(N[C@@H]3CCN(c4cccnn4)C3)s2)CC1 (single isomer, unassigned) [Example 222] | 29.7 | 82.5
Cc1cc(OC(F)(F)F)ccc1CN1CCC(CC(=O)Nc2nnc(N[C@@H]3CCN(c4cccnn4)C3)s2)CC1 | 5.4 | 65.9
